# Measurements as given in PubChem BioAssay (EPA / NIEHS).
# The chains behind the UniProt entries cited, without tags or fusion partners.
# UniProt P30536, whole entry, looked up: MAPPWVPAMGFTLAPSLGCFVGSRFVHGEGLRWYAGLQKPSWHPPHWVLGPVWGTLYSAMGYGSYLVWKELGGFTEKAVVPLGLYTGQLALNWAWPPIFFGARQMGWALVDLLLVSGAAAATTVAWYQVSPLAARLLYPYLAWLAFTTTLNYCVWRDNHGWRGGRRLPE
# UniProt P08172, whole entry, looked up: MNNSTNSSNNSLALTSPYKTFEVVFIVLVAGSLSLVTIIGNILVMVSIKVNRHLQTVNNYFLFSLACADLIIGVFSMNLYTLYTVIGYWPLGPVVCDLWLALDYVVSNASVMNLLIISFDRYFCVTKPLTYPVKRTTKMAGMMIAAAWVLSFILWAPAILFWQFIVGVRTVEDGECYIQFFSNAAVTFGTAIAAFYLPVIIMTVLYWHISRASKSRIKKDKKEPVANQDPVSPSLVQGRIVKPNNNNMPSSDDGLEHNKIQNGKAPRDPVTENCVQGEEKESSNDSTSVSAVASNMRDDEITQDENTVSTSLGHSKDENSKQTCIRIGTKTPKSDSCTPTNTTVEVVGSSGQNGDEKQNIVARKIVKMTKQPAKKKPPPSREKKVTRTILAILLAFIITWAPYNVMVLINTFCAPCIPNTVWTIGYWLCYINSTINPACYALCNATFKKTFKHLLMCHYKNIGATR
# UniProt P28223, whole entry, looked up: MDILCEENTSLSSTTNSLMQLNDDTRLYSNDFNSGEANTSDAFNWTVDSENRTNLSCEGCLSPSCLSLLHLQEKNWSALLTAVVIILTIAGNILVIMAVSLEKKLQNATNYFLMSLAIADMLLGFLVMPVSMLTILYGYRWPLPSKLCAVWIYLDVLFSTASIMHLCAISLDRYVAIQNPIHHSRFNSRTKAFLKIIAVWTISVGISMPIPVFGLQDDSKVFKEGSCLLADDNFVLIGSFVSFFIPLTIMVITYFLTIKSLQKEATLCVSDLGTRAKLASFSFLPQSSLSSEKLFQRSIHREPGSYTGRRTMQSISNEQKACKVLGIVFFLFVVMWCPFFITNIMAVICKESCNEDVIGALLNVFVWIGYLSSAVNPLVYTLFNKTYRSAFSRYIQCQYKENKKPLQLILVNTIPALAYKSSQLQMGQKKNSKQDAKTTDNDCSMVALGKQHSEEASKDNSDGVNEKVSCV
# UniProt P33261, whole entry, looked up: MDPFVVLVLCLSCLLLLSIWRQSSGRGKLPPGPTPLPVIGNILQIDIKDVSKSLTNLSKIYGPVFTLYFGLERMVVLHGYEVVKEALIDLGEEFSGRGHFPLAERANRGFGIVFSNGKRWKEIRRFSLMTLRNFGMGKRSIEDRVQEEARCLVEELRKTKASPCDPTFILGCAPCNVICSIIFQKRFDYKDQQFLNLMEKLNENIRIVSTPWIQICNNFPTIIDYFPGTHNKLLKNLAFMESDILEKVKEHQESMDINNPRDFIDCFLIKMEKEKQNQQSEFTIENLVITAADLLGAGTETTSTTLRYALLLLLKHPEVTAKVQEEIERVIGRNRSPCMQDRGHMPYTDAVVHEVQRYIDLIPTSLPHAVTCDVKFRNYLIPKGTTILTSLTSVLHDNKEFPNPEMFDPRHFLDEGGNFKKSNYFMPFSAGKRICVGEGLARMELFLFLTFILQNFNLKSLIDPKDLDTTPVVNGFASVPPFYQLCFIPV
# The list shows a part of the results, in another mix than the full data. Inconclusive results are not listed. Active and inactive are the calls of the source. Rule for the calls, unless noted: active = hit-call score of the fitted dose curve at least 0.9, where 1 is the maximum; inconclusive = response in the unintended direction; inactive = score below 0.9.
# Legend:
# [1] = biological target: human Peripheral-type Benzodiazepine Receptor (PBR), TSPO (gene 706) (UniProt P30536); test: NVS_MP_hPBR: NovaScreen (NVS) Membrane Protein Assay for human Peripheral-type Benzodiazepine Receptor (PBR) (AID 2283331);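 note: hits reduce radioligand binding relative to DMSO baseline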
# [2] = biological target: Muscarinic acetylcholine receptor M2 (Homo sapiens) (UniProt P08172); test: NVS_GPCR_hM2: NovaScreen (NVS) G Protein-Coupled Receptor Assay for human Muscarinic, M2 Receptor (AID 2283273)
# Method in brief: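 Radioligand competition binding, cell-free, receptor from CHO; 1 h incubation; scintillation detection. Primary testing at 25 uM in duplicate.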
# [3] = biological target: human Serotonin, 5-Hydroxytryptamine Receptor 2A (5HT2A), HTR2A (gene 3356) (UniProt P28223); test: NVS_GPCR_h5HT2A: NovaScreen (NVS) G Protein-Coupled Receptor Assay for human Serotonin, 5-Hydroxytryptamine Receptor 2A (5HT2A) (AID 2283249)
# Method in brief: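 Radioligand displacement on human cortex tissue extract, counted by filtration and scintillation 1.5 h post-dosing. Initial single-concentration screen at 25 uM in duplicate, concentration series in follow-up; DMSO as baseline.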
# [4] = read-out: Cytochrome P450 2C19 (Homo sapiens) (UniProt P33261); test: LTEA_HepaRG_CYP2C19: Life Technologies and Expression Analysis (LTEA) Assay for CYP2C19 using HepaRG (AID 2283482; active = hit-call score of the fitted dose curve at least 0.9, where 1 is the maximum; inactive = score below 0.9); settings: actives raise or lower the signal; mRNA level, 48 h
# Method in brief: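 Human HepaRG liver cells received test chemicals for 48 h (highest 100 uM, half-log dilutions in 0.5% DMSO). CYP2C19 mRNA induction or loss is read by multiplexed qRT-PCR and fitted in both directions versus vehicle.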
compound,measurement,setting,value
CCC(C)N(C)C(=O)c1cc2ccccc2c(-c2ccccc2Cl)n1 (stereo not given),AC50,[1],active: 0.00477 µM
NC(=NCCCCCCN=C(N)/N=C(\N)Nc1ccc(Cl)cc1)/N=C(\N)Nc1ccc(Cl)cc1,AC50,[2],active: 0.969 µM
CCc1nc(N)nc(N)c1-c1ccc(Cl)cc1,AC50,[3],active: 4.7 µM
same,AC50,[4],active: 50 µM
Cc1c(C)c2c(c(C)c1O)CCC(C)(COc1ccc(CC3SC(=O)NC3=O)cc1)O2 (stereo not given),AC50,[4],active: 26.1 µM
